System: Abca4^−/−Rdh8^−/− mice
Assay: light-induced retinal degeneration in Abca4^−/−Rdh8^−/− mice, TPM and histology at day 7
Conditions: 730 nm and 850 nm excitation, day 7 after light; Ret-NH2 1 mg oral gavage, Apo 1 mg i.p.

COc1cc(C(C)=O)ccc1O [apocynin]
RPE autofluorescence appearance by TPM: RPE appearance similar to mice unexposed to light
